From US4656182A, “Substituted trans-1,2-diaminocyclohexyl amide compounds” (dated 1987)

Chains of the proteins cited; added tags and fusions are not shown. Lines headed by an entry give the natural chain unless they say otherwise; changes in a name come on top. Residues count along the entry.
UniProt P41144: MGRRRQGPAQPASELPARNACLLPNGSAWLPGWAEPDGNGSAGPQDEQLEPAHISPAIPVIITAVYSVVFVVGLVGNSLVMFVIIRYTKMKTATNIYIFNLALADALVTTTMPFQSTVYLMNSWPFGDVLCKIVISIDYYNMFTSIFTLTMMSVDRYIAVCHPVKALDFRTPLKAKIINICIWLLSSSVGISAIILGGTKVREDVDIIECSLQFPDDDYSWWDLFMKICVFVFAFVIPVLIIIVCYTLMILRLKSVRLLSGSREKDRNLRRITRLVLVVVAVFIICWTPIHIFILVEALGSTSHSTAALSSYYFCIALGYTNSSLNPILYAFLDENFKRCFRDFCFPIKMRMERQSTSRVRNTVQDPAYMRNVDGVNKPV
UniProt A0ACM8Q262, 1-400: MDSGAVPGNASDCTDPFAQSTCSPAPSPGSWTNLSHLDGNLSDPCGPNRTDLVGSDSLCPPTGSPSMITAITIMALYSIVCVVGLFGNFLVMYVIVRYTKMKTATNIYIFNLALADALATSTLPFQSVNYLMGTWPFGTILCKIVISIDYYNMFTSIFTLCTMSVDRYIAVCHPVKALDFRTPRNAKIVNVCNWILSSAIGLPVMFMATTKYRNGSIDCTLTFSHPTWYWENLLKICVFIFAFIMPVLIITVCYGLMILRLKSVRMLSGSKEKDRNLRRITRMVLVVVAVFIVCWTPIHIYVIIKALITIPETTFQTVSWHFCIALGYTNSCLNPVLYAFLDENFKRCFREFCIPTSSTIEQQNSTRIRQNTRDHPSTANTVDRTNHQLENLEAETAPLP

Experiments:
[1] = biological target: kappa opioid receptor (Cavia porcellus, UniProt P41144); experiment: kappa opioid receptor site binding ([3H]etorphine, brain homogenates, DADLE and DAGO added to saturate delta and mu); conditions: read-out: Ki Kappa; guinea pig brain homogenate, tritiated etorphine, 200 nM DADLE and 200 nM DAGO
[2] = biological target: mu opioid receptor (Cavia porcellus, UniProt A0ACM8Q262); experiment: mu opioid receptor site binding ([3H]DAGO, brain homogenates); conditions: read-out: Ki Mu; guinea pig homogenate, tritiated DAGO, 150 minutes at 0° C.
[3] = test system: mice; experiment: acetylcholine-induced writhing test; conditions: 10 mg/kg s.c.
[4] = test system: mice; experiment: hot plate test at 55° C.; conditions: hot plate at 55° C., 10 mg/kg s.c., compared with control
[5] = test system: kappa; conditions: P. V. Vanvoigtlander, et al., J. Pharmacol. Exp. Ther., 224:7-12 (1983); cited from earlier work

| Compound | Ki [1] [nM] | Ki [2] [nM] | also measured |
| --- | --- | --- | --- |
| CN(C(=O)Cc1cccc2c(-c3cccs3)csc12)[C@@H]1CCCC[C@H]1N1CCCC1 (relative stereo) | 10000 | – | – |
| CN(C(=O)Cc1cccc2sccc12)[C@@H]1CCCC[C@H]1N1CCCCC1 (racemic) | 245 | 2410 | – |
| C=CCN(C)[C@@H]1CCCC[C@H]1N(C)C(=O)Cc1cccc2sccc12 (racemic) | 100 | 210 | – |
| CN(CC1CC1)[C@@H]1CCCC[C@H]1N(C)C(=O)Cc1cccc2sccc12 (racemic) | 100 | – | – |
| CN(C(=O)Cc1ccc2scc(-c3ccccc3)c2c1)[C@@H]1CCCC[C@H]1N1CCCC1 (racemic) | 10000 | – | – |
| CN(C(=O)Cc1ccc2occ(-c3ccccc3)c2c1)[C@@H]1CCCC[C@H]1N1CCCC1 (relative stereo) | 1000 | 10000 | – |
| CC(C)=CCN(C)[C@@H]1CCCC[C@H]1N(C)C(=O)Cc1cccc2sccc12 (racemic) | 205 | 32.5 | – |
| CN(C(=O)Cc1c[nH]c2ccccc12)[C@@H]1CCCC[C@H]1N1CCCC1.Cl (relative stereo) | – | – | writhing in the acetylcholine-induced writhing test [3]: abolition of writhing |
| CN(C(=O)Cc1ccc2c(c1)c1c(n2C)CCCC1)[C@@H]1CCCC[C@H]1N1CCCC1 (relative stereo) | 3970 | 467 | – |
| CN(C(=O)CC1=Cc2ccccc2C1)[C@@H]1CCCC[C@H]1N1CCCC1 (racemic) | 10000 | – | – |
| CN(C(=O)CC1=CCc2ccccc21)[C@@H]1CCCC[C@H]1N1CCCC1 (racemic) | 100 | 10000 | – |
| CN(C(=O)Cc1csc2ccccc12)[C@@H]1CCCC[C@H]1N1CCCC1 (racemic) | 48.5 | > 1000 | – |
| CN(C(=O)Cc1cccc2sccc12)[C@@H]1CCCC[C@H]1N1CCCC1 (relative stereo) | 3.73 | 408 | tolerance of heat on a hot plate [4]: longer tolerance of heat; writhing in the acetylcholine-induced writhing test [3]: abolition of writhing |
| CN(C(=O)Cc1c[nH]c2ccccc12)[C@@H]1CCCC[C@H]1N1CCCC1 (relative stereo) | 74.5 | 2940 | – |
| CN(C(=O)Cc1ccc(Cl)c(Cl)c1)[C@@H]1CCCC[C@H]1N1CCCC1 (relative stereo) | – | – | kappa agonist activity [5]: selective kappa agonist activity |
| CN[C@@H]1CCCC[C@H]1N(C)C(=O)Cc1cccc2sccc12 (racemic) | – | > 1000 | – |
